SMILES strings stand for the structures. Bounds are passed on as bounds.

Experimental findings from ChEMBL document CHEMBL4732230, “Design, synthesis, and biological evaluation of 4-benzoylamino-1H-pyrazole-3-carboxamide derivatives as potent CDK2 inhibitors” (Eur J Med Chem, 2021) are described below.

The species named for assay [1] is Homo sapiens. Kind of assay: Selectivity index, ratio of IC50 for CDK1/cyclin B1 (unknown origin) to IC50 for CDK2/cyclin A2 (unknown origin).
The species entered for assay [2] is Homo sapiens. In words: Selectivity index, ratio of IC50 for CDK9/cyclin T1 (unknown origin) to IC50 for CDK2/cyclin A2 (unknown origin).
For assay [3], the species on record is Homo sapiens. In words: Selectivity index, ratio of IC50 for CDK6/cyclin D3 (unknown origin) to IC50 for CDK2/cyclin A2 (unknown origin).
For assay [4], the species on record is Homo sapiens. In words: Selectivity index, ratio of IC50 for CDK7/cyclin H/MAT1 (unknown origin) to IC50 for CDK2/cyclin A2 (unknown origin).
For assay [5], the species on record is Homo sapiens. In words: Selectivity index, ratio of IC50 for CDK12/cyclin K (unknown origin) to IC50 for CDK2/cyclin A2 (unknown origin).
The species named for assay [6] is Homo sapiens. Kind of assay: Selectivity index, ratio of IC50 for CDK4/cyclin D3 (unknown origin) to IC50 for CDK2/cyclin A2 (unknown origin).
Assay [7] is filed under the species Homo sapiens. Kind of assay: Selectivity index, ratio of IC50 for CDK3/cyclin E1 (unknown origin) to IC50 for CDK2/cyclin A2 (unknown origin).

Regarding `NC(=O)c1cccc(-c2ccc(F)c(C(=O)Nc3c[nH]nc3C(=O)Nc3ccc(F)cc3)c2F)c1`, the Ratio IC50 in the assay listed under Homo sapiens [1] stood at 8.
For the compound `NC(=O)c1ccc(-c2ccc(F)c(C(=O)Nc3c[nH]nc3C(=O)Nc3ccc(F)cc3)c2F)cn1`, the Ratio IC50 was greater than 10 in the assay listed under Homo sapiens [2]; greater than 10 in the assay listed under Homo sapiens [3]; greater than 10 in the assay filed under Homo sapiens [4]; greater than 10 in the assay filed under Homo sapiens [5]; 17 in the assay filed under Homo sapiens [1]; greater than 10 in the assay filed under Homo sapiens [6]. In the assay filed under Homo sapiens [7], the Ratio IC50 came to 2.
